Earlier results as cited in patent publication US7345073B2, “Method for treating cryptorchidism” (Hormos Medical Ltd., priority 2003, dated 2008).

Tested on: cryptorchidism (non-descended testes)
Conditions: according to one study; cited from earlier work

## hCG: human chorionic gonadotrophin, hormonal treatment of cryptorchidism
  efficacy in cases of true non-descended testes: ineffective
